Assay: activity coefficient (dimensionless); of the first substance listed, at infinite dilution; xn = mol fraction of the nth substance listed
Settings: Liquid, Chromatography, x1 = 0

CCCCOCCCC [dibutyl ether] + CCCCCCn1cc[n+](C)c1.N#C[B-](C#N)(C#N)C#N
Settings	activity coefficient
318.15 K	7.23
328.15 K	6.98
338.15 K	6.79
348.15 K	6.68
358.15 K	6.52
368.15 K	6.42

Source: the NIST ThermoML archive (doi:10.1016/j.jct.2011.11.025)
